The record followed here is patent US20080064053A1, “Genotoxicity Testing” (priority 2003, published 2008).

This data set deals with RAD54 promoter-GFP reporter (pGen001).

On to tritolyl phosphate, for which the GSA genotoxicity result is reported as “positive”.
